# Binding of CDR-mutated scFvs to a peptide of the spike HR2 region

Source: Engelhart et al. 2022 (doi:10.1038/s41597-022-01779-4), MIT Lincoln Laboratory and A-Alpha Bio; data file from the FLAb repository.

Target: peptide PDVDLGDISGINAS, taken from heptad repeat 2 (HR2) of SARS-CoV-2 spike.

The variants keep the light chain, the linker and the frameworks of Ab-91 (scFv order VL, the linker GGGGSGGGGSGGGGS, VH).
VL: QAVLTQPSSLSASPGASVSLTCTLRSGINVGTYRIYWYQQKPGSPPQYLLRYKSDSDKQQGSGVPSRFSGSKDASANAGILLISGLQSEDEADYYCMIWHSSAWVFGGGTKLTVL
VH: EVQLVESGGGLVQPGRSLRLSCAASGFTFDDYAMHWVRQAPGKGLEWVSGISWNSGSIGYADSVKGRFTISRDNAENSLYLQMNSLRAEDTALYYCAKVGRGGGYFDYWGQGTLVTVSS

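Library AAYL51 holds single substitutions and randomly drawn double and triple substitutions in the CDRs. The assay is AlphaSeq: two haploid yeast populations carry antibody and antigen on their surface. Pairs that bind mate more often; barcode pairs of the diploids are counted by sequencing. A regression on co-assayed BCL2-family reference pairs converts the normalised counts of each replicate to an apparent Kd. Each pool was mated in three replicate cultures.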

Each variant is given by its three heavy chain CDRs, as the data file delimits them; those of the parent are GFTFDDYAMH, GISWNSGSIGYADSVK, VGRGGGYFDY. All variants listed here change M34 of the VH, counted from its first residue. Affinities are written as log10 Kd with Kd in nM; a lower number is a better binder. Replicates are averaged; those with no signal do not enter the mean. "no signal" marks a missing value. The strain was present, yet no cells mated with the target were sequenced in any replicate, which points to weak or no binding.

With NFTFDDYAQH / GISWNSGSIGYADSVI / VGRGGGYFDY the result was 2.83 (3 of 3 replicates). For MFTFDDYALH / GISWNSGSIGYADSVK / VGRGGGYFDY, the assay gave no signal (0 of 3 replicates). Variant GFTFDDYAYH / GISWNSGSIGYADSCK / VGWGGGYFDY gave 6.13 (1 of 3 replicates). Variant GVTFDDYAWH / GISWNSGSIGYADQVK / VGRGGGYFDY gave no signal (0 of 3 replicates). Variant GFTFDDYAVH / GISWKSGSIGYIDSVK / VGRGGGYFDY gave 5.47 (3 of 3 replicates). Variant GFTPDDYAKH / GISWNSGSIGYADSVK / VGWGGGYFDY gave 4.01 (1 of 3 replicates). Variant GFTFDDYAEH / GISWNSGSIGYADSVK / VGRQGGYFDY gave 4.50 (2 of 3 replicates).

With GFTFDDYAHH / GISWNSGSIGYADSVK / MGRQGGYFDY the result was no signal (0 of 3 replicates). Variant GFTFDDYATH / GISWNSGSIGYADSVK / VPRGGGYFDY showed 4.05 (3 of 3 replicates). Variant GYTFDDYAEH / GISWNSGSIGYADSVK / VGRGGGYWDY showed 2.10 (3 of 3 replicates). Variant GFTFDDYARH / GISWNSGSIGLADSVK / VNRGGGYFDY gave 4.27 (1 of 3 replicates). For CFTFDDYAIH / GISWNSGSIGYADSVK / VGRGGGYFDY, the assay gave no signal (0 of 3 replicates). For GHKFDDYASH / GISWNSGSIGYADSVK / VGRGGGYFDY, the assay gave 5.51 (1 of 3 replicates). Variant GLTFDDYAVH / GASWNSGSIGYADSVK / VGRGGGYFDY gave 3.26 (1 of 3 replicates).

Variant GFTFDDYAAH / GISANHGSIGYADSVK / VGRGGGYFDY gave no signal (0 of 3 replicates). For GFTFDDYACH / GIVWNEGSIGYADSVK / VGRGGGYFDY, the assay gave 4.51 (3 of 3 replicates). Variant GFTVDDYAPH / GISWNSGSIGYAESVK / VGRGGGYFDY gave 3.68 (1 of 3 replicates). With GFTFADYAKH / GKSWNSGSIGYADSVK / VGRGGGYFDY the result was 4.88 (2 of 3 replicates). Variant GFTFDDYATH / GISWNSGSIGVADSVK / VGRGGGYFDA gave 5.47 (3 of 3 replicates). For GFTFDDYAFH / GISVNSGSIGYADSVK / VGRGKGYFDY, the assay gave 6.00 (1 of 3 replicates). With GFTFDDYAHK / GISSNSGSIGYADSVK / VGRGGGYFDY the result was 5.29 (2 of 3 replicates).

With GVTFDDYAKH / GISWNSGSIGYADSVK / VGRGGIYFDY the result was 4.19 (1 of 3 replicates). For GFTFDDYAEH / GISWNSGSFGYADSVK / VARGGGYFDY, the assay gave no signal (0 of 3 replicates). For GFTFDDYAKH / GISWISGSIGYADLVK / VGRGGGYFDY, the assay gave no signal (0 of 3 replicates). With GFTFDDYAFH / SISWNSGSIGYADSVK / VGEGGGYFDY the result was no signal (0 of 3 replicates). Variant GLTFDDYAWH / IISWNSGSIGYADSVK / VGRGGGYFDY gave 5.44 (1 of 3 replicates). Variant GFTFDDYAPH / GVSWNSGSIGYADSVK / VGRGSGYFDY gave no signal (0 of 3 replicates). With GFNFDDYATH / GISWNSGSIGYADSVK / VGRGGGPFDY the result was no signal (0 of 3 replicates).

With GFTFDDYAEH / GISWNSGSDGYADSVK / VGREGGYFDY the result was 5.02 (2 of 3 replicates). Variant GFTFDDYAGH / GISWNSGSIGYADSVK / VGRGGMYFMY showed no signal (0 of 3 replicates). For GFTFDDYASH / GISWNSGSWGYADSVK / VGRGGLYFDY, the assay gave 4.84 (1 of 3 replicates). For GHTFDDYAHH / GISWNSGSIGYADSVK / VGRGGGYFDY, the assay gave no signal (0 of 3 replicates). For MFTFEDYANH / GISWNSGSIGYADSVK / VGRGGGYFDY, the assay gave 4.99 (1 of 3 replicates). Variant GFTFTDYAPH / GISWNSGSPGYADSVK / VGRGGGYFDY gave 5.00 (1 of 3 replicates). Variant EFTFDDYAGH / GISWNDGSIGYADSVK / VGRGGGYFDY showed no signal (0 of 3 replicates).

With GFTFDDYRKH / GISWNSGSIGYADSVK / VGRGGGYGDY the result was 5.12 (3 of 3 replicates). Variant GFTFDDYAPH / GISWNSGSIGYADSIK / VGYGGGYFDY showed 4.41 (2 of 3 replicates). Variant GTTFDDYANH / GISWNSGSIGYADSVI / VGRGGGYFDY gave no signal (0 of 3 replicates). Variant GFTFDDGAHH / GISWNSGSRGYADSVK / VGRGGGYFDY showed 4.85 (1 of 3 replicates). Variant GFTFDDYDTH / GISWNSGSIGYADSVK / VGRFGGYFDY showed 4.57 (3 of 3 replicates). Variant GFTFDDYACH / FISWNEGSIGYADSVK / VGRGGGYFDY gave no signal (0 of 3 replicates). For GFTFNDYAQH / GISWNSGSIGYPDSVK / VGRGGGYFDY, the assay gave 5.83 (2 of 3 replicates).

Variant GFTDDDYAEH / GISWNSGSIGYADSVK / VGRGSGYFDY showed no signal (0 of 3 replicates). With GFTFDDYARH / GISWVSGSIGYADSVK / VGRGGRYFDY the result was no signal (0 of 3 replicates). Variant DFTFDDYAWH / GISWNSNSIGYADSVK / VGRGGGYFDY gave no signal (0 of 3 replicates). With GFTFDDYAAH / GISWNSGSIGYADPVK / NGRGGGYFDY the result was 3.44 (1 of 3 replicates). Variant GFTFDDYANH / GISWDSGSIGYADSVK / VGRGGGYFDY showed 3.96 (2 of 3 replicates). Variant SFTFDDYAHH / GISWNSGSIGYADSVK / VGRGGGYFDV showed no signal (0 of 3 replicates). Variant GFTFDDKAKH / GISWNSGSIGYADSVK / VGRGGGTFDY gave 6.18 (1 of 3 replicates).

Variant GFTFLDYADH / GISWNSGSIGYADSVK / VGRGGGYFDY showed 5.36 (1 of 3 replicates). With GFTFDDYAIH / GISWGSGSIGYADSVK / VGRGGGYFDY the result was 5.10 (3 of 3 replicates).

The closing 5 entries, repeated:

CDR-H1	CDR-H2	CDR-H3	mean, log10 nM	detected
GFTFDDYANH	GISWDSGSIGYADSVK	VGRGGGYFDY	3.96	2/3
SFTFDDYAHH	GISWNSGSIGYADSVK	VGRGGGYFDV	no signal	0/3
GFTFDDKAKH	GISWNSGSIGYADSVK	VGRGGGTFDY	6.18	1/3
GFTFLDYADH	GISWNSGSIGYADSVK	VGRGGGYFDY	5.36	1/3
GFTFDDYAIH	GISWGSGSIGYADSVK	VGRGGGYFDY	5.10	3/3

Background: pairings of library AAYL51 with three empty control strains gave a value in 21% of cases (median 4.54, 5th percentile 3.26). Values in that range, when seen in few replicates, are hard to tell from nonspecific mating. For reference, the parent read 1.86 as the reference entry and 0.88 as a member of this library.